Molecular target: human cytosolic seryl-tRNA synthetase (SerRS), tag-free recombinant (human) (UniProt P49591)
Assay: SEC

By UniProt entry, the sequences of proteins in these tests, tags left out. Where a name states a change or a piece, a line headed by the entry shows the natural chain unless it says otherwise.
UniProt P49591: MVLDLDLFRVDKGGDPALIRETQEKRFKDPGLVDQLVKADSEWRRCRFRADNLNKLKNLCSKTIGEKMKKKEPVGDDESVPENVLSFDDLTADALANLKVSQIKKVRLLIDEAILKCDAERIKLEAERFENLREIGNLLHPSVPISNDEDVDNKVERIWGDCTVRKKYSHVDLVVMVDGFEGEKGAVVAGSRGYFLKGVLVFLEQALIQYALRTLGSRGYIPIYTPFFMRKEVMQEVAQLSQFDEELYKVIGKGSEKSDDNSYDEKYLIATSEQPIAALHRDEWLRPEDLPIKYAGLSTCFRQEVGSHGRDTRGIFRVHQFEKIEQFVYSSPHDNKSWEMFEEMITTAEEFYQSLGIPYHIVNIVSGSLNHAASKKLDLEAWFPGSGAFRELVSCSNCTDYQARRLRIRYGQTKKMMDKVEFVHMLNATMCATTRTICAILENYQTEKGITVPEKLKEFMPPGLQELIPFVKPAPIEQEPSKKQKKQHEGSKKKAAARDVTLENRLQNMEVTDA

human cytosolic seryl-tRNA synthetase (SerRS), tag-free recombinant (from UniProt P49591) (enzyme; other documents disagree on this pair)
stoichiometry N: 2

Source: article doi:10.1101/2025.09.23.677902
